Values quoted from earlier work in patent US5935954A, “Compounds with improved multi-drug resistance activity” (Vertex Pharmaceuticals Incorporated, priority 1997, dated 1999).

Settings: patients; at concentrations needed for chemosensitization (CsA); cited from earlier work

Question: For “11-methyl-leucine cyclosporin [11-met-leu CsA]”, which immunosuppression is on record?
Answer: Its immunosuppression is “do not exert an immunosuppressive effect”.
